Reference: article PMC10771525 (Communications Biology, 2024)
Blank lines part the entries; values can stand above or below the compound they belong to.

Sequences of proteins named here, by UniProt entry; tags and fusion partners are left off. A change or cut given only in a name is not applied to a line headed by its entry. Residues count along the entry.
UniProt P43116: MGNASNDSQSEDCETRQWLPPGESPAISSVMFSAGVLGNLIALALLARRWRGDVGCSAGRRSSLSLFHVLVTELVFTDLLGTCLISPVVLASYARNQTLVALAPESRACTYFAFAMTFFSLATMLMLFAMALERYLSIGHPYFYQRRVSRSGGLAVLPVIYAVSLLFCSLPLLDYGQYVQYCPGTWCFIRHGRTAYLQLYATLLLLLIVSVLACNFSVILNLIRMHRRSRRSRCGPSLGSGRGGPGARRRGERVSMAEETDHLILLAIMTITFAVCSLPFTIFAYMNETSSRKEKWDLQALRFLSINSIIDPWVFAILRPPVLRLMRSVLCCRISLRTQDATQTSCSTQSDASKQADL
UniProt O60895, 43-175: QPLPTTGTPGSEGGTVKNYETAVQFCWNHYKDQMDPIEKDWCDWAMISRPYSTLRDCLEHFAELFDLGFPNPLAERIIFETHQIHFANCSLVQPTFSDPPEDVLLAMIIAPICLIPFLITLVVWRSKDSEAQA
UniProt Q16602, 23-461: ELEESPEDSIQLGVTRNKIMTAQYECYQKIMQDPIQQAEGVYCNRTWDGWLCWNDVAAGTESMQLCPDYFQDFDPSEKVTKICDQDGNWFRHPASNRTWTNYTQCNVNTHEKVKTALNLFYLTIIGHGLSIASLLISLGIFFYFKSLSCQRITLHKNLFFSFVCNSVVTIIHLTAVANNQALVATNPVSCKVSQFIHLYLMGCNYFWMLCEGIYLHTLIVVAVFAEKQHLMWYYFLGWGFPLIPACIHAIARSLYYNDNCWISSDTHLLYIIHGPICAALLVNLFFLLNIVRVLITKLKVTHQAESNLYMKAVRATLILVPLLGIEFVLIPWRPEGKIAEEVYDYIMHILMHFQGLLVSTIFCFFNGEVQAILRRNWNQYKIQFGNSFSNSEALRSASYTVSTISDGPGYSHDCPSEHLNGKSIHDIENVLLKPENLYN
UniProt O60896, 24-148: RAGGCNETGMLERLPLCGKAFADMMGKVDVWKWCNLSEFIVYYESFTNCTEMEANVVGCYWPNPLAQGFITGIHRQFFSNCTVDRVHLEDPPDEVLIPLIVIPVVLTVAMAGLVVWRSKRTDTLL
UniProt P47871, 26-477: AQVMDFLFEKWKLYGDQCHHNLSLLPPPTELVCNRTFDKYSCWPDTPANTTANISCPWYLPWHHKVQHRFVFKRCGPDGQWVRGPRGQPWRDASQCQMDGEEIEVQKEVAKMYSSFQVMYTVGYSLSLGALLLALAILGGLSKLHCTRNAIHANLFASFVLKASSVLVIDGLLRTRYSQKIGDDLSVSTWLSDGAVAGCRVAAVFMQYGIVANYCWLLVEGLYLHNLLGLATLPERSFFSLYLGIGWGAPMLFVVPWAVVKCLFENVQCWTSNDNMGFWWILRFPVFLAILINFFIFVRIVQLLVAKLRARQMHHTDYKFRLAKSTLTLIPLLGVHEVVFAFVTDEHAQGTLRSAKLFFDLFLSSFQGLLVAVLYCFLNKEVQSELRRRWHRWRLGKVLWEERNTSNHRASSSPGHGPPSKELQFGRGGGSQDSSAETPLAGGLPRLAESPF

What was measured:
Assay in all cases: GPCR panel (control), Arrestin, CHO-K1
Type in all cases: cell-based
Conditions in all cases: reference agonist
[1] = target: PTGER2 (Homo sapiens, UniProt P43116)
[2] = target: T1, CALCRL + RAMP2 (Homo sapiens, UniProt O60895+Q16602)
T1 construct: expressed in transfected cells; host or cells: CHO-K1

[3] = target: T2, CALCRL + RAMP3 (Homo sapiens, UniProt O60896+Q16602)
T2 construct: expressed in transfected cells; host or cells: CHO-K1

[4] = target: T3, AGTRL1 (Homo sapiens, UniProt P35414)
T3 construct: expressed in transfected cells; host or cells: CHO-K1
T3 sequence (P35414 1-380): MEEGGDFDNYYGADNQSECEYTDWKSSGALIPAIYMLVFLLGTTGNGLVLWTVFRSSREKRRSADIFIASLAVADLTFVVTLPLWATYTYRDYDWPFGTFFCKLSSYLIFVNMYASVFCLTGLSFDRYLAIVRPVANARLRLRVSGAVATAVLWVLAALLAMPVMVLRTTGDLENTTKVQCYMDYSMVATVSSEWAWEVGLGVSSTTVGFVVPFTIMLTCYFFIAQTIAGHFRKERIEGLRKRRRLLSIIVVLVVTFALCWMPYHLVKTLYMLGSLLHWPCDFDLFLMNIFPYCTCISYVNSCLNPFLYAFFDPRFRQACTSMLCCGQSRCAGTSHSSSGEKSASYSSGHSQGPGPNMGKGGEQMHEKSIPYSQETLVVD

[5] = target: T4, GCGR (Homo sapiens, UniProt P47871)
T4 construct: expressed in transfected cells; host or cells: CHO-K1

[6] = target: T5, PRLHR (Homo sapiens, UniProt P49683)
T5 construct: expressed in transfected cells; host or cells: CHO-K1
T5 sequence (P49683 1-370): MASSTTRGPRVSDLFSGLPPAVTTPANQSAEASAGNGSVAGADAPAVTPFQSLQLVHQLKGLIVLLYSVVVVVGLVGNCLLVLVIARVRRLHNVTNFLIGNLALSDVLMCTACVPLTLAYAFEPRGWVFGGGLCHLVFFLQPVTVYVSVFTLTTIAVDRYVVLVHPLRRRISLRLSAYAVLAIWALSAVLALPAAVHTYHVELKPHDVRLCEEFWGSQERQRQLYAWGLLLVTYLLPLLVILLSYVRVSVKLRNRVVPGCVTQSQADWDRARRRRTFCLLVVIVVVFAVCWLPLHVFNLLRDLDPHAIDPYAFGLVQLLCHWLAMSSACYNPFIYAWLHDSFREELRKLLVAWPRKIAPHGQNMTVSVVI

EC80 [2]: 150 nM | EC80 [3]: 100 nM
Compound: Adrenomedullin

EC80 [5]: 320 nM
Compound: Glucagon

EC80 [6]: 34 nM
Compound: PrRP-31

Further lines, the compound ahead of its results:

Compound: CCCCC[C@H](O)/C=C/[C@H]1[C@H](O)CC(=O)[C@@H]1C/C=C\CCCC(=O)O [Prostaglandin E2]
EC50 [1]: 1200 nM

Compound: Apelin-13
EC80 [4]: 160 nM
